These are literature values, as cited in patent US20260240837A1, “Compositions Reducing the Expression or Activity of C1 GALT1 for Treating Ewing Sarcoma” (University of Massachusetts Medical School, priority 2023, published 2026).

Amino acid sequences for entries named in this document (tags omitted). Residues count along the entry.
UniProt P08684, 2-503 limits assumed: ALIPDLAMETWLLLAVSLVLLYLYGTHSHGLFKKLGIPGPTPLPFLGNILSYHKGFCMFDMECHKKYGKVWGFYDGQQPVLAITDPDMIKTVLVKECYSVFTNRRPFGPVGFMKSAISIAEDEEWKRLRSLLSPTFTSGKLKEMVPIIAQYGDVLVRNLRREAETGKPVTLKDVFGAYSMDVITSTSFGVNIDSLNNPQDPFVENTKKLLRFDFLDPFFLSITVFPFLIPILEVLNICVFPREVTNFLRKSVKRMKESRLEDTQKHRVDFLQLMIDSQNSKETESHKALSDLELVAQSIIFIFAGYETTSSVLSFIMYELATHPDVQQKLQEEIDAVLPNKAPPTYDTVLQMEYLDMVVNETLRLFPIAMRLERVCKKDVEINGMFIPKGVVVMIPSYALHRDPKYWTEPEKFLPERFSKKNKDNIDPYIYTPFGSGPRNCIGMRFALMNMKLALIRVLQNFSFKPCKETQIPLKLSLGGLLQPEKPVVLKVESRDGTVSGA

In the data set the target is fungal cytochrome P450 CYP3A4 (Homo sapiens, UniProt P08684). Conditions: previous studies (Isoherranen et al., 2004); cited from earlier work.

As to `CCC(C)n1ncn(-c2ccc(N3CCN(c4ccc(OCC5COC(Cn6cncn6)(c6ccc(Cl)cc6Cl)O5)cc4)CC3)cc2)c1=O` (stereo not shown) [ITZ, itraconazole], the “inhibition of CYP3A4” value is reported as “potently inhibits”.
